Results: ChEMBL document CHEMBL1131412

Protein sequences, listed by entry. Tags and fused reporters are not part of them.
UniProt P21917, whole entry: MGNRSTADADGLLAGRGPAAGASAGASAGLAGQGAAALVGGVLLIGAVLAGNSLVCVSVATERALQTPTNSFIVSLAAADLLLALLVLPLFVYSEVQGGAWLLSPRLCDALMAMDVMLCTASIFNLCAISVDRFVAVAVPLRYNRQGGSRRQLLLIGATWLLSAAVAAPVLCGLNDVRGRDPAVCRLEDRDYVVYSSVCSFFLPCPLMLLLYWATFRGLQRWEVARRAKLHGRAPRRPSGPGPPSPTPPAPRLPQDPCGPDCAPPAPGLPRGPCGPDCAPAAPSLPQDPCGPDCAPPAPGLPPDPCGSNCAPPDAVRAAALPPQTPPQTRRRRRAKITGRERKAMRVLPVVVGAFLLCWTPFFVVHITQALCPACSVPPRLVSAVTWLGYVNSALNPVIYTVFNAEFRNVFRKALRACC

Biological target: D(4) dopamine receptor (Homo sapiens, UniProt P21917)
Experiment: In vitro binding affinity at human cloned Dopamine receptor D4.2 by [3H]YM-09151-2 displacement.

- IC50: 30 nM
SMILES: COc1ccc2c(c1)CC(NC(=O)CCN1CCN(c3ccccc3OC)CC1)CC2 (stereo unspecified)
